Test results reported in ChEMBL document CHEMBL1128670, “Hypoxia-selective antitumor agents. 11. Chlorambucil N-oxide: a reappraisal of its synthesis, stability, and selective toxicity for hypoxic cells” (J Med Chem, 1995).

What was measured:
[1] = system: CHO-AA8; assay: Growth inhibition activity was measured in repair proficient AA8 cells under aerobic conditions (4 hours drug exposure)
[2] = system: UV4; assay: Growth inhibition activity was measured in repair deficient UV4 cells under aerobic conditions (4 hours drug exposure)

**Q.** Which IC50 [1] does the source give for `O=C(O)CCCc1ccc([N+]([O-])(CCCl)CCCl)cc1` here?
**A.** 46 µM

**Q.** What about the IC50 [2] of the same compound?
**A.** 4.9 µM
